Drawing on PubChem BioAssay (NCATS), this text covers activity change, negative = cytotoxic and Potency for six compounds.

Experiment [1] is described as follows: qHTS of pediatric cancer cell lines to identify multiple opportunities for drug repurposing: Primary screen for U-2 OS cells (AID 1347096).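 Note: plate controls were DMSO wells for no effect and bortezomib positive control wells for full effect; nearly all actives have a fitted effect of over 50% in size.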 The settings on record: U-2 OS viability, CellTiter-Glo luminescence, 48 h; at 46 µM (top of the series) unless noted. In short, it runs like this: (§1)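 Cells (500-1,000/well) in growth media were settled 5 h at 37 degrees C, then given compounds for 48 h. Viability was read as CellTiter-Glo luminescence. Primary runs used MIPE at 11 points (0.78 nM-46 µM) and NPC at 8 points (0.59 nM-46 µM); follow-ups used 11 points.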

Experiment [2] in a line: qHTS of pediatric cancer cell lines to identify multiple opportunities for drug repurposing: Primary screen for SK-N-SH cells (AID 1347098).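 For activity change, negative = cytotoxic: DMSO served as neutral control and bortezomib at 2.3 µM as positive control; % is set by controls: 0 for no effect and ±100 for the full control effect.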 Note: nearly all actives have a fitted effect of over 65% in size. Note: potency is the fitted concentration of half-maximal effect. The method in brief: (§2)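 Cells (500-1,000/well) rested 5 h, then received compounds for 48 h; metabolically active cells were measured by CellTiter-Glo luminescence. Final concentrations spanned up to 46 µM (MIPE, 11-point) or 0.59 nM-46 µM (NPC, 8-point) in primary screens, 11-point in follow-ups.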

The nature of experiment [3]: qHTS of pediatric cancer cell lines to identify multiple opportunities for drug repurposing: Primary screen for NB1643 cells (AID 1347099).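 Note: plate controls were DMSO neutral control for no effect and bortezomib positive control for full effect; nearly all actives have a fitted effect of over 50% in size.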 The following applies: NB1643 neuroblastoma viability, CellTiter-Glo luminescence, 48 h; at 46 µM (top of the series) unless noted. For orientation: qHTS replaces the single test concentration by a dilution series.
The nature of experiment [4]: qHTS of pediatric cancer cell lines to identify multiple opportunities for drug repurposing: Primary screen for LAN-5 cells (AID 1347100).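 Note: plate controls were DMSO neutral control for no effect and bortezomib positive control for full effect.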 The settings on record: LAN-5 neuroblastoma viability, CellTiter-Glo luminescence, 48 h; at 46 µM (top of the series) unless noted. The method in brief:
as §1

Experiment [5] is described as follows: qHTS of pediatric cancer cell lines to identify multiple opportunities for drug repurposing: Primary screen for Rh18 cells (AID 1347102). Note: % is set by controls: 0 for no effect and ±100 for the full control effect; nearly all actives have a fitted effect of over 65% in size. The settings on record: Rh18 rhabdomyosarcoma viability, CellTiter-Glo luminescence, 48 h; at 46 µM (top of the series) unless noted. In short, it runs like this: as §1
Experiment [6] is described as follows: qHTS of pediatric cancer cell lines to identify multiple opportunities for drug repurposing: Primary screen for OHS-50 cells (AID 1347103).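 Note: plate controls were DMSO neutral control for no effect and bortezomib positive control for full effect; nearly all actives have a fitted effect of over 40% in size.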 The following applies: OHS-50 osteosarcoma viability, CellTiter-Glo luminescence, 48 h; at 57.3 µM (top of the series) unless noted. In short, it runs like this: as §2
Experiment [7] can be described thus: qHTS of pediatric cancer cell lines to identify multiple opportunities for drug repurposing: Primary screen for RD cells (AID 1347104).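 Note: plate controls were DMSO for no effect and bortezomib for full effect; nearly all actives have a fitted effect of over 55% in size.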 The settings on record: RD rhabdomyosarcoma viability, CellTiter-Glo luminescence, 48 h; at 92.7 µM (top of the series) unless noted. In short, it runs like this: (§3)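 500-1,000 cells/well; 5 h pre-incubation 37 °C/5% CO2; compound pinned; 48 h; CellTiter-Glo, 15 min RT; luminescence. MIPE 11-pt from 0.78 nM, NPC 8-pt from 0.59 nM final. Bortezomib 2.3 µM final as positive control.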

Experiment [8] can be described thus: qHTS of pediatric cancer cell lines to identify multiple opportunities for drug repurposing: Primary screen for MG 63 (6-TG R) cells (AID 1347105). Note: % is set by controls: 0 for no effect and ±100 for the full control effect; nearly all actives have a fitted effect of over 50% in size. The following applies: MG 63 (6-TG R) viability, CellTiter-Glo, 48 h; at 92.7 µM (top of the series) unless noted. The method in brief: as §3
The nature of experiment [9]: qHTS of pediatric cancer cell lines to identify multiple opportunities for drug repurposing: Primary screen for Saos-2 cells (AID 1347097). Note: % is set by controls: 0 for no effect and ±100 for the full control effect; nearly all actives have a fitted effect of over 40% in size. The settings on record: Saos-2 viability, CellTiter-Glo ATP luminescence, 48 h; at 46 µM (top of the series) unless noted. In short, it runs like this:
as §3

Experiment [10] in a line: qHTS of pediatric cancer cell lines to identify multiple opportunities for drug repurposing: Primary screen for BT-12 cells (AID 1347101).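 Note: plate controls were DMSO for no effect and bortezomib positive control for full effect; nearly all actives have a fitted effect of over 25% in size.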 The following applies: BT-12 viability, CellTiter-Glo luminescence, 48 h; at 57.3 µM (top of the series) unless noted. The source says: Drug repurposing or repositioning has been offered as a strategy for drug development in oncology programs. This approach has special potential for childhood cancers and other rare or orphan diseases, where the expected return on new drug development has been a disincentive to pharmaceuticals.
In this project we exploit the poly-pharmacology of drugs to discover new indications via phenotypic screening of a panel of 19 well-characterized cell lines derived from solid tumors seen in children and adolescents. The goal is to identify approved drugs with previously unrecognized anticancer properties that has the potential to reveal new mechanisms and biological processes involved in carcinogenesis or drug resistance. We employed a titration-based paradigm (quantitative high-throughput screening or qHTS), where all compounds were tested at multiple concentrations for their effect on cell viability. Concentration-response curves (CRCs) were derived directly from the primary screen, and both potency and efficacy values were used to identify compounds with robust bioactivity profiles. We screened the NIH Chemical Genomics Center (NCGC) Pharmaceutical Collection (NPC) and Mechanism Interrogation Plate (MIPE) small molecule collections of approved and investigational compounds against these cell lines; and measured metabolically active cells after 48 hours of compound treatment as a proxy for cell viability.
Assay Submitter: Nathalia J. Martinez, National Center for Advancing Translational Sciences, National Institutes of Health, Rockville, MD, USA; email: natalia.martinez@nih.gov
[1] Shen, M et al. Quantitative high-throughput phenotypic screening of pediatric cancer cell lines identifies multiple opportunities for drug repurposing. Oncotarget 2017 Dec 19;9(4):4758-4772. PMID 29435139. […]
Cells were assayed in growth media at a density of 500-1,000 cells/well. […] After a 15 min incubation at room temperature, samples were analyzed for luminescence intensity using a ViewLux High-throughput CCD imager equipped with clear filters.

The list shows a part of the results, in another mix than the full data. Results filed as inconclusive are left out. Active and inactive are the calls of the source. Calls come from the whole dose curve; as a rule, active = well fitted curve in the direction sought with a large enough effect; inconclusive = small, poorly fitted or top-dose-only effect, or another doubt; inactive = no such curve, though single readings can be large; an effect the other way counts as inactive or inconclusive.

On to `O=[N+]([O-])c1cccc([N+](=O)[O-])c1`, for which the activity change, negative = cytotoxic in experiment [1] was inactive: 6.72% [at 92.7 µM]; in experiment [3], inactive: 7.7% [at 92.7 µM]; in experiment [4], inactive: -18.1% [at 92.7 µM]; in experiment [5], inactive: 20% [at 92.7 µM]; in experiment [6] it was inactive: 6.72% [at 116 µM]; in experiment [7], inactive: 15.4%. In addition, in [8], the activity change, negative = cytotoxic is inactive: 5.83%. The Potency result in experiment [2] is “inactive”.
Regarding `C/C1=C2N=C(/C=C3N=C(/C(C)=C4\[N-][C@@](C)([C@@H]5N=C1[C@](C)(CCC(=O)NC[C@@H](C)OP(=O)([O-])O[C@H]1[C@@H](O)[C@@H](n6cnc7cc(C)c(C)cc76)O[C@@H]1CO)[C@H]5CC(N)=O)[C@@](C)(CC(N)=O)[C@@H]4CCC(N)=O)[C@@](C)(CC(N)=O)[C@@H]\3CCC(N)=O)C(C)(C)[C@@H]/2CCC(N)=O.[C-]#N.[Co+3]`, the activity change, negative = cytotoxic in experiment [1] was inactive: -13.8%; in [9] it was inactive: -10.2%; in experiment [3], inactive: -11.8%; in experiment [4] it was inactive: -17.5%; in experiment [5], inactive: -19%; in [8], inactive: -37.9% [at 46 µM]. Further, the Potency result in [2] is “inactive”.
Take `CCOP(=O)(CC)Oc1ccc([N+](=O)[O-])cc1` (stereo not drawn): the activity change, negative = cytotoxic in experiment [1] is inactive: -2.96%; in experiment [9], inactive: -3.9%; in experiment [3], inactive: -9.54%; in experiment [4], inactive: -8.59%; in experiment [10], inactive: -4.79%; in experiment [5], inactive: -7.97%. The figures for the activity change, negative = cytotoxic in experiment [6] and in experiment [7] were inactive: 23.3% and inactive: -3.38% [at 46 µM], respectively. In addition, in experiment [2], the Potency result was “inactive”.
`OCCSCCO`: the activity change, negative = cytotoxic in [1] was inactive: 6.05%; in experiment [9], inactive: 41.8%; in experiment [3] it was inactive: 9.95%; in [4], inactive: 12.1%; in experiment [10] it was inactive: 13.9%; in [5], inactive: 4.16%. Further, the figures for the activity change, negative = cytotoxic in [6], in experiment [7] and in experiment [8] were inactive: 15.4%, inactive: 9.68% [at 46 µM] and inactive: 1.54% [at 46 µM], respectively. For the same compound, in experiment [2], the Potency result was “inactive”.
In the case of `Cc1cccc([N+](=O)[O-])c1[N+](=O)[O-]`, the activity change, negative = cytotoxic in [1] was inactive: 10.6% [at 92.7 µM]; in [9], inactive: 27% [at 92.7 µM]; in [3], inactive: 15.1% [at 92.7 µM]; in [4] it was inactive: 6.83% [at 92.7 µM]; in [10], inactive: 3.98% [at 116 µM]; in experiment [5], inactive: 14.9% [at 92.7 µM]. The activity change, negative = cytotoxic is inactive: 18.7% [at 116 µM] in [6], inactive: 9.74% in [7] and inactive: -13.8% in [8]. The Potency entry in [2] is “inactive”.
For `CC1=C2[N-][C@@](C)([C@@H]3N=C(C(C)=C4N=C(C=C5N=C1[C@@](C)(CC(N)=O)[C@H]5CCC(N)=O)C(C)(C)[C@H]4CCC(N)=O)[C@](C)(CCC(=O)NC[C@@H](C)OP(=O)([O-])O[C@H]1[C@@H](O)[C@@H](n4cnc5cc(C)c(C)cc54)O[C@H]1CO)[C@H]3CC(N)=O)[C@@](C)(CC(N)=O)[C@@H]2CCC(N)=O.[C-]#N.[Co+3]`, the activity change, negative = cytotoxic in experiment [1] is inactive: -16% [at 16.1 µM]; in experiment [4], inactive: -15% [at 16.1 µM]; in experiment [5], inactive: -10.5% [at 16.1 µM]. The Potency in [2] was active: 10.5 µM.
